Test results from patent US20140093973A1.
Read-outs that look alike come from different tables or passages of the source.

Experiments:
[1] = target: soluble HLA-A*0201 (sHLA-A*0201) (human)
[2] = target: soluble HLA-A*0201 (sHLA-A*0201) (human); remark: listed apart in the source
[3] = target: soluble HLA-A*0201 (sHLA-A*0201) (human); assay: FP, passive loading at room temperature
[4] = target: soluble HLA-A*0201 (sHLA-A*0201) (human); assay: FP, passive loading at room temperature, highest sHLA concentration
[5] = target: soluble HLA-A*0201 (sHLA-A*0201) (human); assay: FP real-time association kinetics, 50 ug/mL sHLA-A*0201, excess b2m, 20 C
[6] = target: soluble HLA-A*0201 (sHLA-A*0201) (human); assay: FP real-time association kinetics, intercept of kob against ligand concentration
[7] = target: soluble HLA-A*0201 (sHLA-A*0201) (human); assay: FP, pFITC P2 titrated at 425 nM (20 µg/ml) sHLA-A*0201; FPmin = 27.00 mP
[8] = target: soluble HLA-A*0201 (sHLA-A*0201) (human); assay: FP, sHLA-A*0201 titrated against 10 nM FITC-labeled P2, plateau of the fit
[9] = target: soluble HLA-A*0201 (sHLA-A*0201) (human); assay: FP, fixed FITC-peptide, sHLA preincubated at 54 C and titrated (the value is an sHLA concentration), 4 C, 140 hours
[10] = target: soluble HLA-A*0201 (sHLA-A*0201) (human); remark: listed apart in the source
[11] = target: soluble HLA-A*0201 (sHLA-A*0201) (human); remark: listed apart in the source
[12] = target: soluble HLA-A*0201 (sHLA-A*0201) (human); assay: FP titration with variable sHLA-A*0201, 10 nM peptide
[13] = target: soluble HLA-A*0201 (sHLA-A*0201) (human); assay: FP, pFITC P1 titrated at 425 nM (20 µg/ml) sHLA-A*0201; FPmin = 27.00 mP
[14] = target: soluble HLA-A*0201 (sHLA-A*0201) (human); assay: FP, sHLA-A*0201 titrated against 10 nM FITC-labeled P1, plateau of the fit

Binder | EC50 [1] [nM] | Bmax [2] [nM] | maximum FP [3] [mP] | change in polarization upon binding [4] [mP] | maximal polarization level [4] [mP] | kon [5] [M⁻¹ s⁻¹] | koff [6] [s⁻¹] | FPmax [7] [mP] | FPmax [8] [mP] | EC50 (read off the curve) [9] [nM] | EC50 [10] [nM] | Bmax [11] [nM] | increase of signal upon binding [12] [%] | FPmax [13] [mP] | FPmax [14] [mP]
SLYNKVATL (modifications not checked) [A*0201/P2, FITC-labeled peptide …] | 277 | 104 | 70 | 40 | 66 | 19400 | 0.00024 | 160 | 206 | 3 | – | – | – | – | –
FLPSDKFPSV (modifications not checked) [A*0201/P1, FITC-labeled peptide …] | – | – | – | – | – | – | – | – | – | – | 202 | 157 | > 500 | 179 | 183
